Target: Human CD47 (coated on ELISA plates) (human) (UniProt Q08722)
Experiment: ELISA on plate-coated human CD47, detection with HRP goat anti-human IgG Fcγ, A450

- EC50 (read off the curve): 8 nM
Substance: anti-EGFR/anti-CD47 TetBiAb (bispecific antibody)

From US20160009824A1
